In general, IC50 refers to the concentration needed to halve the response being measured.

Chains of the proteins cited; added tags and fusions are not shown. Residues count along the entry.
UniProt P07711, 114-333: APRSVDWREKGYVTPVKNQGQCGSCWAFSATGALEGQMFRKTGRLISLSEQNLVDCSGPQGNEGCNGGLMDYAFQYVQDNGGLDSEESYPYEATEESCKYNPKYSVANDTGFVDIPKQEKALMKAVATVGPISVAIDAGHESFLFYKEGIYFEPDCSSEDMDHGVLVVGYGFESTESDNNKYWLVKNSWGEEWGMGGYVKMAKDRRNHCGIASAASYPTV

One test concerns the target Cathepsin L (Homo sapiens, UniProt P07711). As to conditions: read-out: CatL IC50.
In another test the target is Cathepsin B (Homo sapiens, UniProt P07858). As to conditions: read-out: CatB IC50.

Consider `CC(C)(C)OC(=O)NCCOc1ccc(Cl)cc1C(=O)NCC(=O)Nc1ccc([N+](=O)[O-])cc1Cl` [JMX0301, tert-Butyl(2-(4-chloro-2-((2-((2-chloro-4-nitrophenyl)amino)-2-oxoethyl)carbamoyl)phenoxy)ethyl)carbamate], for which the IC50 at Cathepsin L came out at 135 µM. As to `Cl.NCCOc1ccc(Cl)cc1C(=O)NCC(=O)Nc1ccc([N+](=O)[O-])cc1Cl` [JMX0286, 2-(2-Aminoethoxy)-5-chloro-N-(2-((2-chloro-4-nitrophenyl)amino)-2-oxoethyl)benzamide hydrochloride], the IC50 at Cathepsin B was found to be 46.4 µM; on Cathepsin L it was 111 µM.

The values are drawn from patent US20250186374A1 (priority 2022, published 2025).
